## CycPeptMPDB entries from one study

PAMPA measures passive passage through an artificial lipid membrane.
Permeability is in 10^-6 cm/s, converted from the database's log10 values; higher is more permeable.

SMILES	PAMPA (10^-6 cm/s)
CCCC[C@@H]1NC(=O)[C@H](CC(C)C)N(C)C(=O)CN(CC2CCOCC2)C(=O)[C@H](C)NC(=O)CN(CCN2CCOCC2)C(=O)[C@H]2CCCN2C1=O	0.0052
CCCC[C@@H]1NC(=O)[C@H](CC(C)C)N(C)C(=O)CN(CCCc2ccccc2)C(=O)[C@H](CC(C)C)NC(=O)CN(CCCOC(C)C)C(=O)[C@H]2CCCN2C1=O	2.5
CCCC[C@@H]1NC(=O)[C@H](CC(C)C)N(C)C(=O)CN(CCCc2ccccc2)C(=O)[C@H](C)NC(=O)CN(CC(C)C)C(=O)[C@H]2CCCN2C1=O	11
CCCC[C@@H]1NC(=O)[C@H](CC(C)C)N(C)C(=O)CN(CCOC)C(=O)[C@H](Cc2ccc3ccccc3c2)NC(=O)CN(CCCOC(C)C)C(=O)[C@H]2CCCN2C1=O	5.5
CCCC[C@@H]1NC(=O)[C@H](CC(C)C)N(C)C(=O)CN(CCCc2ccccc2)C(=O)[C@H](C)NC(=O)CN(CCN2CCOCC2)C(=O)[C@H]2CCCN2C1=O	1.4
CCCC[C@@H]1NC(=O)[C@H](CC(C)C)N(C)C(=O)CN(CCCN2CCCC2=O)C(=O)[C@H](CC(C)C)NC(=O)CN(CCCOC(C)C)C(=O)[C@H]2CCCN2C1=O	0.34
CCCC[C@@H]1NC(=O)[C@H](CC(C)C)N(C)C(=O)CN(CCOc2ccccc2)C(=O)[C@H](Cc2ccccc2)NC(=O)CN(CC(C)C)C(=O)[C@H]2CCCN2C1=O	0.47
CCCC[C@@H]1NC(=O)[C@H](CC(C)C)N(C)C(=O)CN(Cc2ccccc2)C(=O)[C@H](CC(C)C)NC(=O)CN(CCCOC(C)C)C(=O)[C@H]2CCCN2C1=O	6.8
CCCC[C@@H]1NC(=O)[C@H](CC(C)C)N(C)C(=O)CN(CC2CCCCC2)C(=O)[C@H](CC(C)C)NC(=O)CN(Cc2ccc(Cl)cc2)C(=O)[C@H]2CCCN2C1=O	0.079
CCCC[C@@H]1NC(=O)[C@H](CC(C)C)N(C)C(=O)CN(CCCc2ccccc2)C(=O)[C@H](Cc2ccccc2)NC(=O)CN(Cc2cc(CC(C)C)on2)C(=O)[C@H]2CCCN2C1=O	0.046
CCCC[C@@H]1NC(=O)[C@H](CC(C)C)N(C)C(=O)CN(CCOc2ccccc2)C(=O)[C@H](CC(C)C)NC(=O)CN(Cc2cc(CC(C)C)on2)C(=O)[C@H]2CCCN2C1=O	0.23
CCCC[C@@H]1NC(=O)[C@H](CC(C)C)N(C)C(=O)CN(CCCc2ccccc2)C(=O)[C@H](Cc2ccc3ccccc3c2)NC(=O)CN(CC)C(=O)[C@H]2CCCN2C1=O	0.083
CCCC[C@@H]1NC(=O)[C@H](CC(C)C)N(C)C(=O)CN(CCCc2ccccc2)C(=O)[C@H](CC(C)C)NC(=O)CN(CCC)C(=O)[C@H]2CCCN2C1=O	2.7
CCCC[C@@H]1NC(=O)[C@H](CC(C)C)N(C)C(=O)CN(CCCc2cnn(C)c2)C(=O)[C@H](Cc2ccccc2)NC(=O)CN(CC(C)C)C(=O)[C@H]2CCCN2C1=O	6
CCCC[C@@H]1NC(=O)[C@H](CC(C)C)N(C)C(=O)CN(CCc2cccnc2)C(=O)[C@H](CC(C)C)NC(=O)CN(CCN2CCOCC2)C(=O)[C@H]2CCCN2C1=O	0.26
CCCC[C@@H]1NC(=O)[C@H](CC(C)C)N(C)C(=O)CN(CCc2cccnc2)C(=O)[C@H](Cc2ccc3ccccc3c2)NC(=O)CN(Cc2ccc(Cl)cc2)C(=O)[C@H]2CCCN2C1=O	0.0035
CCCC[C@@H]1NC(=O)[C@H](CC(C)C)N(C)C(=O)CN(CCCc2cnn(C)c2)C(=O)[C@H](CC(C)C)NC(=O)CN(CCN2CCOCC2)C(=O)[C@H]2CCCN2C1=O	0.091
CCCC[C@@H]1NC(=O)[C@H](CC(C)C)N(C)C(=O)CN(Cc2ccccc2)C(=O)[C@H](CC(C)C)NC(=O)CN(Cc2ccc3c(c2)OCO3)C(=O)[C@H]2CCCN2C1=O	0.21
CCCC[C@@H]1NC(=O)[C@H](CC(C)C)N(C)C(=O)CN(Cc2ccccc2)C(=O)[C@H](CC(C)C)NC(=O)CN(CCCCc2ccccc2)C(=O)[C@H]2CCCN2C1=O	0.03
CCCC[C@@H]1NC(=O)[C@H](CC(C)C)N(C)C(=O)CN(Cc2ccccc2)C(=O)[C@H](Cc2ccc3ccccc3c2)NC(=O)CN(CCCCc2ccccc2)C(=O)[C@H]2CCCN2C1=O	0.0011

Again, the 3 entries with the lowest PAMPA:

SMILES	PAMPA (10^-6 cm/s)
CCCC[C@@H]1NC(=O)[C@H](CC(C)C)N(C)C(=O)CN(Cc2ccccc2)C(=O)[C@H](Cc2ccc3ccccc3c2)NC(=O)CN(CCCCc2ccccc2)C(=O)[C@H]2CCCN2C1=O	0.0011
CCCC[C@@H]1NC(=O)[C@H](CC(C)C)N(C)C(=O)CN(CCc2cccnc2)C(=O)[C@H](Cc2ccc3ccccc3c2)NC(=O)CN(Cc2ccc(Cl)cc2)C(=O)[C@H]2CCCN2C1=O	0.0035
CCCC[C@@H]1NC(=O)[C@H](CC(C)C)N(C)C(=O)CN(CC2CCOCC2)C(=O)[C@H](C)NC(=O)CN(CCN2CCOCC2)C(=O)[C@H]2CCCN2C1=O	0.0052

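Lipid, pH, incubation time, direction and concentration are not recorded in the data file. The list need not hold all peptides of the study. Entries at the database's floor value (log10 P of -10) are not listed.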

Collected by the curators of CycPeptMPDB (Li et al. 2023) from Furukawa et al. 2016, doi:10.1021/acs.jmedchem.6b01246.